Test results as given in US9493485B2, “Spirocyclic dihydro-thiazine and dihydro-oxazine BACE inhibitors, and compositions and uses thereof” (Imago Pharmaceuticals, Inc., priority 2012, dated 2016).

Sequences of proteins named here, by UniProt entry; tags and fusion partners are left off. Residues count along the entry.
UniProt P56817, 46-501: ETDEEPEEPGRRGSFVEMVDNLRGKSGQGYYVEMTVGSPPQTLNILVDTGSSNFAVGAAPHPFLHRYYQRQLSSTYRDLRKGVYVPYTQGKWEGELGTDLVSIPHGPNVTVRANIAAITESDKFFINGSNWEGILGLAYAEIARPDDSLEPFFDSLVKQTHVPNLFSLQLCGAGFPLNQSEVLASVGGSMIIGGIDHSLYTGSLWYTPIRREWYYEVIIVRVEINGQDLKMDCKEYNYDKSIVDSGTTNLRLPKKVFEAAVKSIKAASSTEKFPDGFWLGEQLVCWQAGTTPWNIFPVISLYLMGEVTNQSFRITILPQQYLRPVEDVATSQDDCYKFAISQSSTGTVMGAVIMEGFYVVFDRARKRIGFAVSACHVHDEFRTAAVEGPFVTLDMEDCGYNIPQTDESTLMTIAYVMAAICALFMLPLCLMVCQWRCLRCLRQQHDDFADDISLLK

Molecular target: BACE1 (Homo sapiens (Human), UniProt P56817)
Experiment: BACE1 FP assay
Assay type: biochemical
Settings: pH 4.5
Description: BACE1 activity can be assessed in an AlphaScreen® assay. Compounds to be assessed (e.g. compounds as described in the above examples) are serially diluted 1:4 in DMSO, then plated by diluting 10 μL of compound with 40 μl of assay buffer (1×PBS, 0.01% Tween-20, pH 7.0, 0.05% BSA). The diluted compound is transferred (4 μL per well) to a 386 well assay plate and 4 μL of BACE1 enzyme ([…]) is added and incubated for 15 minutes. This assay uses a probe that is a BACE1 binding sight ligand linked to biotin, which can be displaced by test compound dependent on compound binding affinity. This of biotinylated probe (4 μL) is added and incubated for 1 hour, followed with 4 μL of donor and acceptor bead mixture and incubated for 2 hours. The fluorescent signal is read on a plate reader and the value as a function of compound concentration is used to determine the IC50. Compounds are also assessed for BACE1 and Cathepsin D activity using an FP Assay. Compounds to be assessed (e.g. compounds as described in the above examples) are serially diluted 1:3 with DMSO and each concentration point is transferred to a 96 well plate, 6 μL per well, followed by addition of 194 μL of assay buffer (100 mM sodium acetate, pH 4.5 with 0.001% Tween-20). […]

- IC50: 464 nM
Compound: COc1cnc(C(=O)Nc2ccc(F)c(C3(C)N=C(N)OC4(CCC4)C3(F)F)c2)cn1 (stereo not shown) [Compound 9-164, N-(3-(6-amino-9,9-difluoro-8-methyl-5-oxa-7-azaspiro[3.5]non-6-en-8-yl)-4-fluorophenyl)-5-methoxypyrazine-2-carboxamide]
